Like-named read-outs stand apart in the source and are kept apart here.

The text below walks through data of patent publication US6589950B1, “Purine derivatives inhibitors of tyrosine protein kinase SYK” (Novartis AG, priority 1999, dated 2003).

The assay has as its target syk kinase (Homo sapiens, UniProt P43405). Nature of the assay: syk kinase peptide phosphorylation scintillation proximity assay (SPA). The following applies: read-out: IC50 (concentration at which 50% inhibition of syk kinase phosphorylation occurs), biotin-EDPDYEWPSA substrate, 33P-ATP, SPA beads, room temperature 30 minutes.

For the molecule `c1nc2c(NC3CC3)nc(Nc3ccc4[nH]ncc4c3)nc2[nH]1`, the IC50 (tested form: hydrochloride) was 3 nM.

Take `CCC(=O)N(C)c1ccc(Nc2nc(NC3CC3)c3nc[nH]c3n2)cc1`: the IC50 came out at 6 nM.

As to `c1cnc2ccc(Nc3nc(Nc4ccc5cn[nH]c5c4)c4nc[nH]c4n3)cc2c1`, the IC50 stood at 4.5 nM.

Consider `CC(C)Nc1nc(Nc2ccc(S(=O)(=O)N(C)C)cc2)nc2[nH]cnc12`, for which the IC50 (tested form: TFA salt) is 5 nM.
